Earlier results, collected in patent US10577395B2 (priority 2014, dated 2020).

System: vancomycin-resistant strain of E. faecium
Settings: Kahne et al., Chem. Rev. 2005; cited from earlier work

Structure (SMILES): CN[C@H](CC(C)C)C(=O)N[C@H]1C(=O)N[C@@H](CC(N)=O)C(=O)N[C@H]2C(=O)N[C@H]3C(=O)N[C@H](C(=O)N[C@H](C(=O)O)c4cc(O)cc(O)c4-c4cc3ccc4O)[C@H](O)c3ccc(c(Cl)c3)Oc3cc2cc(c3O[C@@H]2O[C@H](CO)[C@@H](O)[C@H](O)[C@H]2O[C@H]2C[C@](C)(N)[C@H](O)[C@H](C)O2)Oc2ccc(cc2Cl)[C@H]1O [Compound 1, vancomycin, reference compound]
- MIC, vancomycin-resistant strain of E. faecium: 2048 µg/mL
